This note sets out measurements from PMC3555856, “In vitro α-glucosidase inhibitory activity of phenolic constituents from aerial parts of Polygonum hyrcanicum” (DARU Journal of Pharmaceutical Sciences, 2012).

By UniProt entry, the sequences of proteins in these tests, tags left out. Where a name states a change or a piece, a line headed by the entry shows the natural chain unless it says otherwise.
UniProt P53341: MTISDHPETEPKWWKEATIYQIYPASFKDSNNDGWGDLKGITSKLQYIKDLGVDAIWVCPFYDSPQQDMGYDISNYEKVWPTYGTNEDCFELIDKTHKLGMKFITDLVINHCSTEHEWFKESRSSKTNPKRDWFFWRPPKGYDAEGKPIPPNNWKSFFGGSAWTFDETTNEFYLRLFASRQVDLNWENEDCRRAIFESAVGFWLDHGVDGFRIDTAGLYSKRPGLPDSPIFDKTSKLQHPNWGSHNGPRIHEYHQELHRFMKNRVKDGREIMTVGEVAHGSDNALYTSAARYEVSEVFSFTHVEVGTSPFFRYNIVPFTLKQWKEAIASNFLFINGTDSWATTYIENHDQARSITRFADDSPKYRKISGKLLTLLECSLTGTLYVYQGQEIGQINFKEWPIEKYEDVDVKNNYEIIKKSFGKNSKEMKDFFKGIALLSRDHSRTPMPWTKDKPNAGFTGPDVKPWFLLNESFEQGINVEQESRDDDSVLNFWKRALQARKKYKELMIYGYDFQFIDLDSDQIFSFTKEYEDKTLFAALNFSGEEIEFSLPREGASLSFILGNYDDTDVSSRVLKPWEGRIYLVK

This assay has as its target T1, α-glucosidase (EC 3.2.1.20, from baker's yeast) (Saccharomyces cerevisiae, UniProt P53341).
T1 construct: purchased Sigma-Aldrich Chemie (Germany)
The assay is classed as biochemical. The note with it: read-out: α-Glucosidase inhibitory activity IC50; mean ± SD of three experiments; pH 6.9, 37°C. The method, then: Column chromatography was carried out using silica gel (230–400 mesh) obtained from Merck (Germany), RP-18 (230–400 mesh) and Sephadex LH-20 procured from Fluka (Switzerland). Pre-coated silica gel 60 F254 plates and silica gel 60 RP-18 F254S plates (Merck, Germany) were used for TLC. Spots were observed under UV at 254 and 366 nm and spraying with anisaldehyde-H2SO4 reagent (Sigma-Aldrich Chemie, Germany) and heating at 120°C for 5 min. HPLC separations were performed on a Knauer Wellchrom system connected to a photodiode array detector (Smart line system, Germany). ^1H and ^13C NMR spectra were measured on a Bruker Avance DRX 500 spectrometer operating at 500 MHz for ^1H and 125 MHz for ^13C using a 5 mm PABBO probehead. α-glucosidase (EC 3.2.1.20, from baker’s yeast, 77 U/mg), p-nitrophenyl-α-d-glucopyranoside, vitamin E 97% and 2, 2-diphenyl-picrylhydrazyl (DPPH) were obtained from Sigma-Aldrich Chemie (Germany). […]
α-Glucosidase inhibitory activities were evaluated according to the chromogenic method described by McCue et al. (2005), with some modifications. […] Absorbance of the wells was measured with a microplate reader at 405 nm, while the reaction system without plant extracts was used as control. […] The enzyme inhibitory rates of samples were calculated as follows: […]
The IC50 values of samples were calculated and reported as the mean ± standard deviation (SD) of three experiments.

The IC50 is the concentration that gives 50% inhibition. Take “myricetin 3-O-α-L-rhamnopyranoside [Compound 10]”: the IC50 came out at 600 ± 200 nM.
